Experiment: Cytotoxicity experiment (MTT method) on C8166 cells
Format: cell-based
Settings: human; C8166 cells in vitro
Experimental: C8166 cells infected with HIV-1 were used for determining the anti-HIV biological activity at the cellular level. The specific method was described below.
Cytotoxicity experiment: The toxicity of the compounds on C8166 cells was determined by MTT method. In 96-well cell culture plates, the compounds were subjected to 5-fold serial dilution and 100 μL of C8166 cell suspension (4×10^5/mL) was added into each well. Triplicate wells were set for each concentration. […] The cells were incubated at 37° C. in a 5% CO2 incubator for three days, followed by the addition of MTT solution into each well, and then the cells were incubated at 37° C. for 4 hours. 10% SDS-50% DMF was added into each well and the cells were incubated at 37° C. in a 5% CO2 incubator overnight. After mixing evenly, the OD values were measured by BIO-TEK ELx800 ELISA instrument (determination wavelength: 570 nm; reference wavelength: 630 nm).

SMILES | CC50 at 3 days [µM]
CCc1c(CC2CCCCC2)nc(SCc2n[nH]c(-c3ccccc3)c2Cl)[nH]c1=O [Compound I-01] | > 200
CCc1c(CC2CCCCC2)nc(SCc2cc(-c3ccc(OC)cc3)[nH]n2)[nH]c1=O [Compound I-10] | > 200
CCc1c(CC2CCCCC2)nc(SCc2n[nH]c(-c3cccc(F)c3)c2Cl)[nH]c1=O [Compound I-15] | > 200
CCc1c(CC2CCCCC2)nc(SCc2n[nH]c(-c3ccc(Cl)cc3)c2Cl)[nH]c1=O [Compound I-16] | > 200
CCc1c(CC2CCCCC2)nc(SCc2n[nH]c(-c3ccc(C)cc3)c2Cl)[nH]c1=O [Compound I-22] | > 200
